Key:
[1] = Storage stability of 6-fold concentrated CCM (UPLC amino acid analysis)
Method: […] . The concentration of Tyr, N-L-NVa-Tyr HCl and NVa was determined by amino acid analysis using UPLC. To remove undissolved compound, a filtration step (0.22 µm pore size) was performed prior to amino acid analysis.

CHOK1 GS clone A = experiment: Batch cell culture, Tyr replaced by derivative; conditions: for titer production / maximum IgG concentration / maximum VCD / cell performance compared to the negative control pTyr 2Na salt: batch; for titer production / maximum IgG concentration: after seven days; for maximum VCD: after six days (negative control: after seven days)
Method: For cell culture experiments, a CHOK1 GS suspension cell line expressing a human IgG1, was used. Cells were cultivated in triplicates or quadruplicates in modified EX-CELL® Advanced HD Perfusion Medium (Merck Darmstadt, Germany) using 50 mL spin tubes with a starting culture volume of 30 mL and a seeding density of 0.3x10^6 viable cells/mL. Incubation was carried out at 37°C, 5% CO2, 80 % humidity and an agitation of 320 rpm. The Tyr derivatives were added in the CCM (modified EX-CELL® Advanced HD Perfusion Medium depleted in Tyr) instead of the amino acid Tyr. The pH of the CCM was neutral (pH 7.3±0.1). […] . Besides, Pro-Tyr, Gly-Tyr and Tyr-His were also tested in comparison to N-L-NVa-Tyr HCl. Experiments for Gly-Tyr and N-L-NVa-Tyr HCl were repeated at least 3 times, as well as for positive and negative control.
(§1) Viable cell density (VCD = viable cells/mL) and viability were evaluated with a Vi-CELL XR (Beckman Coulter, Fullerton, CA). Metabolite concentrations were monitored using a Cedex Bio HT (Roche Diagnostics, Mannheim, Germany) based on spectrophotometric and turbidometric methods. Quantification of amino acids was carried out via UPLC after derivatization with the AccQ•TagUltra® reagent kit. Derivatization, chromatography and data analysis were carried out following the supplier recommendations (Waters, Milford, MA).

CHOK1 non-GS clone = experiment: Batch cell culture, Tyr replaced by derivative
Method: (§2) Therefore, cells were cultivated in triplicates or quadruplicates in modified EX-CELL® Advanced HD Perfusion Medium (Merck Darmstadt, Germany) using 50 mL spin tubes with a starting culture volume of 30 mL and a seeding density of 0.3x10^6 viable cells/mL. Incubation was carried out at 37°C, 5% CO2, 80 % humidity and an agitation of 320 rpm. The Tyr derivatives were added in the CCM (modified EX-CELL® Advanced HD Perfusion Medium depleted in Tyr) instead of the canonical amino acid Tyr. The pH of the CCM was neutral (pH 7.3±0.1). […] . No negative control was used for CHOK1 non-GS clone.
as §1, with “turbidimetric” for “turbidometric”

CHOZN GS clone A = experiment: Batch cell culture, Tyr replaced by derivative
Method: as §2
as §1, with “turbidimetric” for “turbidometric”

CHOZN GS clone B = experiment: Batch cell culture, Tyr replaced by derivative
Method: as §2
as §1, with “turbidimetric” for “turbidometric”

CHOZN GS clone C = experiment: Batch cell culture, Tyr replaced by derivative
Method: as §2
as §1, with “turbidimetric” for “turbidometric”

CHOZN GS clone D [2] = experiment: Batch cell culture, Tyr replaced by derivative
Method: as §2
as §1, with “turbidimetric” for “turbidometric”

CHOZN GS clone E = experiment: Batch cell culture, Tyr replaced by derivative; conditions: for titer: after seven days in culture (negative control: maximum titer)
Method: as §2
as §1, with “turbidimetric” for “turbidometric”

CHO DG44 = experiment: Small scale dynamic perfusion culture
CHOZN GS clone D [3] = experiment: Small scale dynamic perfusion culture; conditions: for maximum titer: after nine days in culture (negative control: on day six)
CHOZN GS clone F = experiment: Small scale dynamic perfusion culture
CHOZN GS clone G = experiment: Small scale dynamic perfusion culture

Structure (SMILES): N[C@@H](Cc1ccc(O)cc1)C(=O)O
- stability of 6-fold concentrated CCM ([1]; 4°C and RT, light protected, three months): unstable
- stable for ([1]; 6-fold concentrated CCM, RT, light protected): 14 days
- decrease in tyrosine concentration after ([1]; liquid media, general statement): about 20 days
- titer production / maximum IgG concentration (CHOK1 GS clone A): approximately 160 mg/L
- maximum VCD (CHOK1 GS clone A): 12±1 x10^6 viable cells/mL
- maximum VCD (CHOK1 non-GS clone; after seven days in culture): 15-16 x10^6 viable cells/mL
- viability (CHOK1 non-GS clone; constantly): above 95%
- maximum VCD (CHOZN GS clone A; batch): approximately 11.0 x10^6 viable cells/mL
- viability (CHOZN GS clone A; constantly): above 97%
- titer production (CHOZN GS clone A; on day seven): 230 mg/L
- maximum VCD (CHOZN GS clone B; batch): 9-10 x10^6 viable cells/mL
- viability (CHOZN GS clone B; constantly): above 97%
- titer production (CHOZN GS clone B; on day seven of culture): 33 mg/L
- titer production (CHOZN GS clone C; after seven days in culture): 430 mg/L
- maximum VCD (CHOZN GS clone C; batch): 6.5-8 x10^6 viable cells/mL
- viability (CHOZN GS clone C; constantly, until day six): above 95%
- titer (CHOZN GS clone D [2]; after seven days): 668 ± 55 mg/L
- viability (CHOZN GS clone D [2]; constantly, until day six): above 95%
- maximum VCD (CHOZN GS clone D [2]; positive control after seven days, N-L-NVa-Tyr HCl on day six): 20±1 x10^6 viable cells/mL
- titer (CHOZN GS clone E): 685 ± 5 mg/L
- viability (CHOZN GS clone E; constantly): above 98%
- maximum VCD (CHOZN GS clone E; on day seven): 16 x10^6 viable cells/mL
- viability (CHO DG44; after day seven): below 90%
- maximum titer (CHO DG44; after seven days in culture): 1304 ± 18 mg/L
- viability (CHO DG44; constantly, until day seven): above 90%
- maximum VCD (CHO DG44; on day six): 80 x10^6 viable cells/mL
- maximum titer (CHOZN GS clone D [3]): 1425 ± 39 mg/L
- viability (CHOZN GS clone D [3]; constantly, until day five): above 90%
- viability (CHOZN GS clone D [3]; from day six): 85 - 90%
- maximum VCD (CHOZN GS clone D [3]; on day 10): 100 x10^6 viable cells/mL
- maximum titer (CHOZN GS clone F; after nine days in culture): 1335 ± 38 mg/L
- viability (CHOZN GS clone F; constantly, until day six): above 95%
- viability (CHOZN GS clone F; from day six): below 90%
- maximum VCD (CHOZN GS clone F; on day six): 70 x10^6 viable cells/mL
- maximum titer (CHOZN GS clone G; after nine days in culture): 1425 ± 39 mg/L
- viability (CHOZN GS clone G; constantly, until day five): above 90%
- viability (CHOZN GS clone G; from day six): 85 - 90%
- maximum VCD (CHOZN GS clone G; on day 10): 100 x10^6 viable cells/mL

Structure (SMILES): NCC(=O)N[C@@H](Cc1ccc(O)cc1)C(=O)O
- cell performance compared to the negative control pTyr 2Na salt (CHOK1 GS clone A): lower

Structure (SMILES): N[C@@H](Cc1ccc(OP(=O)(O)O)cc1)C(=O)O
- titer production / maximum IgG concentration (CHOK1 GS clone A): 34 ± 3 mg/L
- maximum VCD (CHOK1 GS clone A): 3.8±0.5 x10^6 viable cells/mL
- titer (CHOZN GS clone E): below 100 mg/L
- VCD maintained (CHOZN GS clone E; batch): approximately 2.0 x10^6 viable cells/mL
- maximum titer (CHOZN GS clone D [3]): 253 ± 3 mg/L
- VCD maintained (CHOZN GS clone D [3]; dynamic perfusion): approximately 13 x10^6 viable cells/mL

Structure (SMILES): N[C@@H](Cc1ccc(O)cc1)C(=O)N[C@@H](Cc1cnc[nH]1)C(=O)O
- cell performance compared to the negative control pTyr 2Na salt (CHOK1 GS clone A): lower

Structure (SMILES): O=C(O)[C@H](Cc1ccc(O)cc1)NC(=O)[C@@H]1CCCN1
- decrease of titer (CHOK1 GS clone A): over 60%
